RAD52 anneal inh = inhibitors of human RAD52 DNA annealing. recombinant RAD52 DNA annealing, FRET fluorescence. inhibition, % at 18.7 µM. P43351. actives 0.46% (n = 360,000). AID 651710;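 active means every replicate showing at least 50% inhibition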
XiGFP reactiv = activators of X-chromosome reactivation in mouse fibroblasts | XiGFP mouse fibroblasts, % GFP-positive cells imaging, 3 d; cells co-treated with 5-aza-dC sensitizer; scaled so ellipticine positive control = 100% | activation, % at 7.58 µM | actives 0.055% (n = 360,000) | AID 743238;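 active means mean normalized replicate activation at least 10% and every replicate at or above 10%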;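 further: 0% = median of on-plate neutral control wells and 100% = ellipticine 6 µM median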
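material = 68-5-11 XiGFP fibroblast line | medium = DMEM plus 5-aza-dC sensitizer | schedule = 3 days compound exposure | benchmarks = positive control ellipticine, 6 µM final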
RAD54 inh = RAD54 (human) branch migration inhibition; AID 602329; RAD54 Holliday junction branch migration, FAM/BHQ fluorescence; inhibition, % at 10.4 µM; actives 0.14% (n = 360,000);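 active means mean normalized replicate activity at least 40 and at least half of replicates scoring 40 or more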;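 further: 0% = median of neutral control wells and 100% = median of positive control wells; inhibitors cause a drop in the FAM fluorescence signal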
E-selectin induc = induces E-selectin expression in human endothelial cells; AID 686992; actives 0.37% (n = 260,000); activation, % at 7.58 µM; HUVEC E-selectin immunofluorescence imaging; normalized: neutral wells 0, TNF-alpha wells 100; P16581;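 active means mean E-selectin-positive cell signal at least 10% of the positive control, reached in at least 60% of replicates, without over 20% cell loss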
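Test system: HUVEC; input: 3,000 HUVEC/well; measured by: immunofluorescence imaging; read-out: % PE-positive cells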
UUG fidelity = alters start codon recognition fidelity in yeast. S. cerevisiae UUG-firefly luciferase reporter, luminescence/redox ratio. AID 602363. activity score, % at 18.7 µM. hit rate 0.13% among 350,000;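 active = replicate mean at a twofold rise or more, about +100% in these data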;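 note: firefly luciferase made from a UUG start codon reports start codon fidelity; reporter light over untreated wells divided by growth signal over untreated wells; some hits fall short of that in this replicate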
Starred values were filed as active, the others as inactive; x = not tested or not shown. Only some compounds are listed: those with a hit (about 0.73% of all), similar ones and a draw of the others.

SMILES | RAD52 anneal inh | XiGFP reactiv | RAD54 inh | E-selectin induc | UUG fidelity
Cc1ccc(-c2cn3nc(-c4ccccc4)c(-c4ccccc4)nc3n2)cc1 | -449 | 78* | -1 | x | -16
CO[C@H]1CN(C)C(=O)c2ccc(NS(=O)(=O)c3ccccc3)cc2OC[C@H](C)N(C)C[C@@H]1C | 11 | 0 | x | 0 | x
CCN1C(c2ccccc2)=C(c2ccccc2)S/C1=C/C=C1\SC(=S)N(C)C1=O | x | x | -3 | x | -2
CCN1C(=O)/C(=C/C=C2/Sc3ccc4ccccc4c3N2CCO)SC1=S | -13 | 0 | 4 | 34* | -16
COc1ccc(NC(=O)N(C)C[C@H]2Oc3ccc(NC(=O)Nc4cccc5ccccc45)cc3CC(=O)N([C@H](C)CO)C[C@H]2C)cc1 | 11 | 0 | 2 | 0 | 18
CNC[C@@H]1Oc2c(NC(=O)Nc3ccc(F)cc3)cccc2C(=O)N([C@H](C)CO)C[C@H]1C | -19 | -1 | 6 | 131* | -5
C[C@H]1CN([C@@H](C)CO)C(=O)c2cccc(NC(=O)Nc3ccc(F)cc3)c2O[C@H]1CN(C)Cc1ccncc1 | -5 | 0 | 10 | 58* | -6
C[C@@H]1CN([C@H](C)CO)C(=O)c2cccc(NC(=O)Nc3ccccc3)c2O[C@H]1CN(C)Cc1ccncc1 | 3 | 0 | -2 | 0 | -20
C[C@@H]1CN([C@@H](C)CO)C(=O)c2cccc(NC(=O)Nc3ccc(F)cc3)c2O[C@@H]1CN(C)Cc1ccncc1 | 9 | 0 | 2 | 65* | -3
CNC[C@@H]1Oc2c(NC(=O)Nc3ccc(F)cc3)cccc2C(=O)N([C@@H](C)CO)C[C@H]1C | -10 | -1 | -10 | -2 | -5
C[C@@H]1CN([C@H](C)CO)C(=O)c2cccc(NC(=O)Nc3ccc(F)cc3)c2O[C@H]1CN(C)Cc1ccncc1 | 5 | 0 | 1 | 40* | 8
COc1ccc(NC(=O)N2CCC3(CC2)CN(C(C)=O)[C@@H](CO)c2[nH]c4cc(OC)ccc4c23)cc1 | 4 | 0 | x | 0 | x
COc1ccc(S(=O)(=O)Nc2ccc3c(c2)CC(=O)N([C@H](C)CO)C[C@@H](C)[C@@H](CN(C)C(=O)NC2CCCCC2)O3)cc1 | 1 | 0 | -5 | 55* | 5
C[C@@H]1CN([C@H](C)CO)C(=O)Cc2cc(NS(=O)(=O)c3ccc(F)cc3)ccc2O[C@@H]1CN(C)C(=O)NC1CCCCC1 | 11 | 1 | 8 | 0 | 16
COc1ccc(S(=O)(=O)Nc2ccc3c(c2)CC(=O)N([C@@H](C)CO)C[C@H](C)[C@@H](CN(C)C(=O)NC2CCCCC2)O3)cc1 | -3 | 0 | 1 | 79* | -6
Cc1ccc(S(=O)(=O)N[C@@H]2CC[C@H](CC(=O)NCCc3ccncc3)O[C@H]2CO)cc1 | 1 | -1 | 1 | -1 | 3
COc1ccc(S(=O)(=O)N(C)C[C@H]2OCCCC[C@@H](C)Oc3ccc(NS(=O)(=O)c4c(C)noc4C)cc3C(=O)N([C@@H](C)CO)C[C@H]2C)cc1 | 4 | 0 | 5 | 0 | 9
O=C(NCc1cccc(F)c1)[C@@H]1[C@@H](CO)[C@@H]2Cn3c(cccc3=O)[C@H]1N2 | -15 | 0 | 4 | 0 | x
C[C@@H]1CCCCO[C@@H](CN(C)Cc2ccncc2)[C@H](C)CN([C@H](C)CO)C(=O)c2cc(NC(=O)Nc3ccc(C(F)(F)F)cc3)ccc2O1 | 49 | 0 | 5 | 0 | 27
COc1ccc(CN(C)C[C@@H]2OCCCC[C@H](C)Oc3ccc(NC(=O)Nc4ccc(C(F)(F)F)cc4)cc3C(=O)N([C@H](C)CO)C[C@H]2C)cc1 | 65* | x | -3 | x | 19
COc1ccc(CN(C)C[C@@H]2OCCCC[C@H](C)Oc3ccc(NC(=O)Nc4ccc(C(F)(F)F)cc4)cc3C(=O)N([C@@H](C)CO)C[C@H]2C)cc1 | 52* | 0 | 12 | x | 7
C[C@H]1CCCCO[C@H](CN(C)Cc2ccncc2)[C@@H](C)CN([C@@H](C)CO)C(=O)c2cc(NC(=O)Nc3ccc(C(F)(F)F)cc3)ccc2O1 | 57* | 0 | -7 | 0 | 0
CC=Cc1ccc2n(c1=O)C[C@@H]1[C@@H](CO)[C@H](C(=O)Nc3ccccc3)N(CC3CC3)[C@H]21 (mixture of isomers) | -22 | 0 | 3 | 0 | 3
COc1cccc2oc3ccc(C#CC4(N)CCCCC4)cc3c(=O)c12 | -2 | 0 | 51* | 0 | -8
Cc1cc(C(=O)CN2C(=O)C(=O)N(Cc3ccco3)C2=O)c(C)n1CCc1ccc(F)cc1 | -20 | 0 | -3 | 90* | -1
O=C(NCc1ccccc1)c1cc(C2CCCCN2C(=O)CCCc2ccccc2)on1 (stereo unspecified) | -6 | 0 | 2 | 0 | -7
O=C(NCc1ccc(F)cc1)c1cc(C2CCCCN2C(=O)CCCc2ccccc2)on1 (stereo unspecified) | -8 | 0 | 5 | 83* | -17
COC(=O)/C=C1\N/C(=N\c2nc(C)cc(C)n2)N(c2ccc(C)cc2)C1=O | 0 | 0 | x | 466* | x
Cc1cccc(NS(=O)(=O)c2csc(C(N)=O)c2)c1 | 4 | 0 | 11 | 0 | -1
Cc1cccc(NS(=O)(=O)c2csc(C(N)=O)c2)c1C | -4 | 0 | -9 | 50* | -16
Cc1ccc(C(NC(=O)Nc2ccccn2)C(Cl)(Cl)Cl)cc1F (stereo unspecified) | -15 | 1 | x | 42* | x
N#C[C@@H]1[C@@H](c2ccc(C3=CCCCC3)cc2)[C@H](CO)N1S(=O)(=O)c1cccc(F)c1 | -14 | 0 | 2 | 0 | -17
Nc1c(C(=O)Nc2ccc(S(=O)(=O)N3CCCC3)cc2)sc2nc3ccc(OC(F)(F)F)cc3cc12 | x | 4 | -29 | x | -9
Nc1c(C(=O)Nc2ccc(S(=O)(=O)N3CCCC3)cc2)sc2nc3cc4c(cc3cc12)CCC4 | x | 63* | x | -1 | x
CCOC(=O)C(=O)Nc1nnc(SCc2ccc(F)cc2)s1 | -6 | 0 | -20 | 39* | -6
CCC(=O)Nc1nnc(SCc2ccc(F)cc2)s1 | x | x | 3 | x | -9
Cc1cccc(-c2ccc([C@H]3[C@@H](CO)N4CCCCN(C(=O)c5cccnc5)C[C@H]34)cc2)c1 | 25 | 0 | -6 | 0 | -13
O=C1CN(S(=O)(=O)Cc2ccccc2)C[C@@H]2[C@H](c3ccc(C#Cc4cccnc4)cc3)[C@@H](CO)N12 | -17 | 0 | x | 1 | x
Nc1nnc(SCc2nnc(-c3ccccc3)o2)s1 | -18 | 0 | x | 523* | x
COc1ccc(S(=O)(=O)Nc2ccc3c(c2)C(=O)N(C)C[C@H](OC)[C@@H](C)CN[C@H](C)CO3)cc1 | -9 | 0 | 1 | 0 | -7
Cc1cc(C(=O)N/N=C/C=C/c2ccc([N+](=O)[O-])cc2)n[nH]1 | -24 | 0 | x | 54* | x

5 entries picked at random from those above, as already listed:
SMILES | RAD52 anneal inh | XiGFP reactiv | RAD54 inh | E-selectin induc | UUG fidelity
CCOC(=O)C(=O)Nc1nnc(SCc2ccc(F)cc2)s1 | -6 | 0 | -20 | 39* | -6
Cc1cccc(-c2ccc([C@H]3[C@@H](CO)N4CCCCN(C(=O)c5cccnc5)C[C@H]34)cc2)c1 | 25 | 0 | -6 | 0 | -13
O=C1CN(S(=O)(=O)Cc2ccccc2)C[C@@H]2[C@H](c3ccc(C#Cc4cccnc4)cc3)[C@@H](CO)N12 | -17 | 0 | x | 1 | x
Cc1cc(C(=O)N/N=C/C=C/c2ccc([N+](=O)[O-])cc2)n[nH]1 | -24 | 0 | x | 54* | x
CCC(=O)Nc1nnc(SCc2ccc(F)cc2)s1 | x | x | 3 | x | -9

Screening data deposited in PubChem BioAssay by Broad Institute.
